Assay results reported in patent publication US20230201217A1 (priority 2019, published 2023).

Tested on: Salmonella typhimurium TA98, TA100, TA1535, TA1537 and Escherichia coli WP2 uvrA
Test: Bacterial reverse mutation assay (Ames test)

For COCCC1CC2CN3CCc4c([nH]c5ccccc45)C(C(=O)OC)(C2)C13.Cl (centres unmarked) [18-MC HCl, 18-Methoxycoronaridine hydrochloride], the mutagenic activity (GLP, up to 500 μg/plate, with and without metabolic activation) was “negative” and the mutagenic response (non-GLP, up to 5000 μg/plate, absence or presence of S9) was “did not cause mutagenic response”.
